Results: publication PMC7948749, “A general chemical crosslinking strategy for structural analyses of weakly interacting proteins applied to preTCR–pMHC complexes” (2021)

The substances below were run against N15β S62C (assay: BMPEG3 chemical crosslinking linkage screen, SDS-PAGE quantification). Conditions: BMPEG3 linker; four parallel linkage experiments; parent: est. 2.0; read off a plot.

Substance	other: Specificity (heterodimer crosslinking specificity)
VSV8/K^b-t2 G56C R1A; V4A; Q6A	1.5
VSV8/K^b-t2 G56C R1A	1.9
VSV8/K^b-t2 G56C Q6A	1.7
